These results are taken from publication doi:10.1101/2025.08.15.670450.

In experiment [1] the target is Tropomyosin receptor kinase A (TrkA) (UniProt P04629).
Experiment [2] shares this target. The experiment is described as follows: BLI. For orientation: BLI is a label-free optical method that tracks binding on a fibre tip over time.
Experiment [3] has as its target Programmed Death-Ligand 1 (PD-L1) (UniProt Q9NZQ7). Description: BLI.
For experiment [4] the target is unchanged.
Experiment [5] has as its target Interleukin-7 Receptor Alpha (IL-7RA) (UniProt P16871). Description: BLI.
Experiment [6] shares this target.
For experiment [7], the target named is SARS-CoV-2 receptor-binding domain (SC2RBD) (SARS-CoV-2) (UniProt P0DTC2).
Experiment [8] has the same target. The experiment is described as follows: BLI.
The target in experiment [9] is Epidermal Growth Factor Receptor (EGFR) (UniProt P00533). The experiment is described as follows: BLI.
The target is the same in experiment [10].

pKd: −log10 of the molar value. Read-outs that look alike come from different tables or passages of the source. Where only a bound is given, the exact number is not on record here.

A word on the pKd: it is the Kd on a negative log10 scale, so that one unit is a factor of ten. High values mean a small Kd, low ones a large Kd. For the substance GDM_TrkA_130, the pKd was 7.22 in experiment [1] and less than 6.00 in [2].

PD-L1 Binder 03 showed a pKd in [3] of 7.68.

In [2], TrkA Binder 06 showed a pKd of 6.89.

Consider PD-L1_binder4, for which the figures for the pKd in [3] and in experiment [4] were less than 6.00 and 6.21, respectively.

For IL-7RA Binder 08, the pKd in experiment [5] was 8.72.

As to PD-L1_Binder_13, the pKd in experiment [3] is 8.81.

Turning to GDM_IL7RA_5, the pKd in [6] is 9.31; in experiment [5], 9.20.

Regarding GDM_SC2RBD_50, the results for the pKd in [7] and in experiment [8] were 7.52 and 6.97, respectively.

In [9], EGFR_Binder_01 had a pKd of 6.96.

In the case of begonia...model2, the pKd in [10] was 6.59; in experiment [9], 6.85.

In the case of IL-7RA_Binder_07, in experiment [5], the pKd was 8.73.

The substance PD-L1_binder6 gave a pKd in [3] of 5.47.

As to SC2RBD Binder 04, the pKd in experiment [8] was 8.00.

For the substance TrkA_Binder_17, the pKd in [2] is 6.96.

Substance SC2RBD_Binder_14 gave a pKd in [8] of 7.99.
